Data on 1 substance can be found in patent publication US20060166907A1, “Composition for the treatment of nasopharyngeal carcinoma and method of use thereof” (priority 2002, published 2006).

Series [1] relates to C666-1 cells. The series can be described thus: WST-1 cell viability assay, C666-1 cells. Conditions: 72 h. Here is the method:
Cell viability assays were performed in 96 well plastic microplates, either uncoated (C666-1) or coated with Poly HEMA (C15). For each cell line, the number of cells distributed per well was optimized in order to achieve the highest metabolic activity while keeping exponential growth till the end of the test. C15 and C666-1 cells were seeded at 10^5 and 35×10^3/well, respectively, in 150 μl culture medium. Following an overnight pre-incubation culture, serial dilutions of chemotherapy drugs (50 μl; final concentration 50 nM-50 μM) were added in quadruplicate to a […]. At the completion of a 72 h incubation with tested pharmacological agents, cell viability was evaluated using the WST-1 assay (Roche Molecular, France). The WST-1 assay is based on the cleavage of the tetrazolium salt by mitochondrial dehydrogenases. […] Cells were incubated with 10 μl of the WST-1 reagent added to the culture medium, for 3 to 6 h, at 37° C. The plates were subsequently read on an ELISA reader (Dynatech MR7000, Guernsey channel Island, USA) using a 490 nm filter. The mean and standard deviation were determined for quadruplicate samples. […]
(Ali, H. et al., Chemotherapy in advanced nasopharyngeal cancer. Oncology (Huntingt), 14:1223-1230, 2000.) Their short term cytotoxic effect was assessed in vitro on the C15 and C666-1 cells, using a cell viability assay based on WST reduction. […]
(In general: Tetrazolium dyes change colour on reduction, which living cells bring about.)

The subject of series [2] is C15 cells.

For bleomycin, the “sensitivity to short term cytotoxic effect” value is listed as “No significant effects” in series [1] and “No significant effects” in series [2] (C15 cells, 72 h, WST-1). Moreover, the “enhancement of cytotoxicity by combination with Compound A” value in series [2] (NPC cells, cell line not specified, test concentrations) is “not observed”.
